## Ab-14 heavy chain CDR variants: yeast mating affinities

Reference: Engelhart et al. 2022, doi:10.1038/s41597-022-01779-4. File: FLAb, binding data.

Target: peptide PDVDLGDISGINAS, taken from heptad repeat 2 (HR2) of SARS-CoV-2 spike.

The variants keep the light chain, the linker and the frameworks of Ab-14 (scFv order VH, a 15-residue (Gly4Ser)3 linker, VL).
VH: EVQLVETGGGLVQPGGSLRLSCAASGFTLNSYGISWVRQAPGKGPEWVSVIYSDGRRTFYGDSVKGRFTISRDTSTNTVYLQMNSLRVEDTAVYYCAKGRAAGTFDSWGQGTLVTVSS
VL: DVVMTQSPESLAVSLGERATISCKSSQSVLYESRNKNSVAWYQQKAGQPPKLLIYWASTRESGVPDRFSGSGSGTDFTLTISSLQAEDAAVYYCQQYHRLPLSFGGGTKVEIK

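The parent was found by panning a naive human phage display library on the peptide. Library AAYL49 holds single substitutions and randomly drawn double and triple substitutions in the CDRs. In AlphaSeq, yeast of one mating type display the scFv and yeast of the other type display the target. After mating in shaken culture at 30 °C for 16 h, diploids were selected and their barcode pairs sequenced. The ratio of observed to expected reads was calibrated, replicate by replicate, on BCL2-family standards whose Kd was known from biolayer interferometry. Mating was done three times.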

Changes read parent residue, position, new residue, counted from the first residue of the VH shown. The read-out is the apparent dissociation constant on a log10 scale (nM): the lower, the stronger. Replicates are averaged; those with no signal do not enter the mean. Where no diploid with the target was found in any replicate, the entry reads "not detected": below detection, most likely a poor binder, though not proof of it. For reference, the parent read 0.65 as the reference entry and 4.11 (one replicate of three) as a member of this library.

changes	mean, log10 nM	detected
T28D S31Q G99N	3.11	2/3
L29N G33W V50T	3.30	1/3
G26N L29T T58I	not detected	0/3
I51D G61A V64L	not detected	0/3
S35W G55D R56S	6.18	2/3
S31D G33E	4.92	1/3
I34K Y60I A101L	3.45	1/3
L29R Y32N R100T	3.68	1/3
N30G Y32A F105T	not detected	0/3
I51R R57T	not detected	0/3
L29N V50D R57Q	4.64	1/3
I51M Y52M R100Y	3.07	1/3
I34Q G99P F105P	not detected	0/3
I34S R57T G103V	2.96	1/3
L29F Y52I Y60P	3.42	1/3
V64T K65C S107L	3.95	1/3
D54M F59K D62H	5.50	2/3
I51S G55P D62F	not detected	0/3
T58S T104K D106R	2.17	3/3
R57D T58G F105K	4.31	2/3
G103I F105S D106F	0.39	3/3
F27G D54T	4.08	3/3
I34P T104L	not detected	0/3
L29E G55K S63W	not detected	0/3
G26T S31F S35Y	not detected	0/3
G26L N30E G55R	not detected	0/3
G26M T28L D62Y	4.05	1/3
I51P G61C S107E	4.22	2/3
G26M Y52V F105I	not detected	0/3
I51W R57L D106C	not detected	0/3
Y32H D54G R56F	not detected	0/3
I51R Y60G A102K	3.43	1/3
G26E Y32D K65A	not detected	0/3
Y52E A101S T104K	not detected	0/3
N30M G99L A102I	not detected	0/3

The remaining entries, values ahead:

mean, log10 nM	detected	changes
1.65	3/3	S31R G33A R100W
2.03	2/3	T28V K65G G99L
not detected	0/3	R56S G103C D106K
3.28	1/3	S31P Y52T G61F
not detected	0/3	K65I G99F T104V
not detected	0/3	G61I D62W F105A
3.67	1/3	R56Q F59V V64N
4.25	1/3	G26W S31K I34H
3.73	2/3	I34S Y52A
2.11	3/3	T58C F59I G99N
5.16	3/3	Y32A Y60G S63A
4.62	2/3	S35C Y52I V64K
not detected	0/3	L29K S53W R57M
not detected	0/3	F27W G99D F105G
not detected	0/3	Y32T R57K T104R
2.71	1/3	I34G F59T S107F
3.21	1/3	S31I R57E A101E
2.48	3/3	R56S K65N D106M
not detected	0/3	G26Y N30A G99Y
4.55	1/3	G26V I34L D106H
not detected	0/3	S35P D62L T104C
3.64	2/3	G33R V50Q A102Y
not detected	0/3	V64K D106I
3.67	1/3	I34S D62R R100W
3.81	2/3	S53V A101D F105P
not detected	0/3	G26H R100C T104W
4.29	1/3	T28H S35T I51E
not detected	0/3	Y52R A101E D106M
2.95	1/3	G99D R100G T104C
not detected	0/3	T28A Y52S G99Y
5.28	2/3	T28E S35W V50I
4.12	3/3	I51F D54W F59A
3.66	3/3	T58Q D62A S107I
not detected	0/3	R56H D62I
4.73	1/3	S31T S53L R56Q

The 9 strongest on average among those seen in every replicate, once more:

changes	mean, log10 nM	detected
G103I F105S D106F	0.39	3/3
S31R G33A R100W	1.65	3/3
T58C F59I G99N	2.11	3/3
T58S T104K D106R	2.17	3/3
R56S K65N D106M	2.48	3/3
T58Q D62A S107I	3.66	3/3
F27G D54T	4.08	3/3
I51F D54W F59A	4.12	3/3
Y32A Y60G S63A	5.16	3/3

Three control strains display no target. For library AAYL49, 15% of the pairings with them gave a signal, with a median of 4.06 and one signal in twenty below 2.83, so weak values seen in few replicates may be background.